Molecules are shown by their SMILES.

By UniProt entry, the sequences of proteins in these tests, tags left out. Residues count along the entry.
UniProt P78536, 215-477 S266A/N452Q limits assumed: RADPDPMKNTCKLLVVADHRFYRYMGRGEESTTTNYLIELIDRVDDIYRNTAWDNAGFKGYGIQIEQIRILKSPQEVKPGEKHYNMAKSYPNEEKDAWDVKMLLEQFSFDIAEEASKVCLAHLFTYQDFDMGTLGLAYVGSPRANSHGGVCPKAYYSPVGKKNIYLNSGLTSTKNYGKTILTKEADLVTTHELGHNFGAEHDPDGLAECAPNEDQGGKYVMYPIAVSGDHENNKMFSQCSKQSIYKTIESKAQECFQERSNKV

For 64 compounds, Ki results are on record in patent US7488745B2, “Compounds for the treatment of inflammatory disorders” (Schering Corporation, priority 2004, dated 2009).

The target of the first assay is purified catalytic domain of recombinant human TACE (rhTACEc) (Homo sapiens, UniProt P78536, N452Q/S266A). Nature of the assay: TACE kinetic assay: cleavage of internally quenched peptide substrate SPDL-3 (fluorescence). Particulars: Ki (nM), Specific TACE inhibitory activity (Ki values).
Consider `O=C1NC(=O)[C@](CN2Cc3cc(OCC#CCO)ccc3C2=O)(c2ccccc2)N1` [Compound 5010], for which the Ki (in general, a dissociation constant, usually derived from enzyme kinetics or from competition with a known ligand) amounted to 0.2 nM.

Consider `COc1ccc2c(c1)C(=O)N(C[C@@]1(c3cc4cc(C5(C)NC(=O)NC5=O)ccc4o3)NC(=O)NC1=O)C2` (stereo partly shown) [Compound 9938], for which the Ki is 0.37 nM.

In the case of `O=C1NC(=O)[C@](CN2Cc3ccc(F)cc3C2=O)(c2nc3ccccc3s2)N1` [Compound 181], the Ki is 3.17 nM.

The same assay, now with this note: Ki (nM), TABLE 6000; Ki printed as class symbols A-D.
Consider `O=C1NC(=O)C(CCc2cccnc2)(CN2Cc3ccc(F)cc3C2=O)N1` (stereo not shown) [Compound 9245], for which the Ki is 10 to 100 nM.

With `COc1ccc2c(c1)C(=O)N(C[C@@]1(c3cc4cc(C5(C)NC(=O)NC5=O)ccc4o3)NC(=O)NC1=O)C2` (stereo partly shown) [Compound 9938], the Ki was under 10 nM.

Consider `COc1ccc2c(c1)C(=O)N(C[C@@]1(c3cc(-c4cccs4)no3)NC(=O)NC1=O)C2` [Compound 9253], for which the Ki is under 10 nM.

Regarding `COc1ccc2c(c1)C(=O)N(C[C@@]1(c3cc4cc(N)cnc4o3)NC(=O)NC1=O)C2` [Compound 9211], the Ki was under 10 nM.

Consider `COc1ccc2c(c1)C(=O)N(C[C@@]1(c3ccc(Oc4ccc(F)cc4)cc3)NC(=O)NC1=O)C2` [Compound 9603], for which the Ki is under 10 nM.

`COc1ccc2c(c1)C(=O)N(C[C@@]1(c3cc(-c4ccccn4)no3)NC(=O)NC1=O)C2` [Compound 9250]: the Ki was under 10 nM.

As for `Cc1noc(C)c1-c1ccc([C@]2(CN3Cc4ccc(OC(F)F)cc4C3=O)NC(=O)NC2=O)cc1` [Compound 9510], the Ki is under 10 nM.

As for `Cn1cc2cc(-c3ccc([C@]4(CN5Cc6ccc(OC(F)F)cc6C5=O)NC(=O)NC4=O)cc3)ccc2n1` [Compound 9739], the Ki is under 10 nM.

For the compound `COc1ccc2c(c1)C(=O)N(CC1(c3nc4ccccc4n3C)NC(=O)NC1=O)C2` (stereo not shown) [Compound 9942], the Ki was under 10 nM.

In the case of `COc1ccc2c(c1)C(=O)N(C[C@@]1(c3ccc(-c4cc(C)c5c(cnn5C(C)C)c4)cc3)NC(=O)NC1=O)C2` [Compound 9735], the Ki is under 10 nM.

Consider `COc1ccc2c(c1)C(=O)N(C[C@@]1(c3cc(-c4ccncc4)no3)NC(=O)NC1=O)C2` [Compound 9248], for which the Ki was under 10 nM.

Consider `COc1ccc2c(c1)C(=O)N(C[C@@]1(c3cn(-c4ccc(F)cc4)nn3)NC(=O)NC1=O)C2` [Compound 9267], for which the Ki is under 10 nM.

Consider `COc1ccc2c(c1)C(=O)N(C[C@@]1(c3cnn(C4CCC4)c3)NC(=O)NC1=O)C2` [Compound 90031], for which the Ki was under 10 nM.

For `CC#CCOc1ccc2c(c1)C(=O)N(C[C@]1(c3ccc(-c4cc(C)ccn4)cc3)C(=O)NC(=O)N1CC#CC)C2` [Compound 9901], the Ki lay in the range of 100 to 1000 nM.

As to `COc1ccc2c(c1)C(=O)N(C[C@@]1(CCc3ccc(F)cc3F)NC(=O)NC1=O)C2` [Compound 9242], the Ki was under 10 nM.

In the case of `COc1ccc2c(c1)C(=O)N(C[C@@]1(c3ccc(-c4ncccc4C)cc3)NC(=O)NC1=O)C2` [Compound 9902], the Ki is under 10 nM.

In the case of `COc1ccc2c(c1)C(=O)N(C[C@@]1(c3cc4cccnc4[nH]3)NC(=O)NC1=O)C2` [Compound 9233], the inhibition constant Ki was under 10 nM.

With `COc1ccc2c(c1)C(=O)N(C[C@@]1(c3ccc(-c4csc(C)n4)cc3)NC(=O)NC1=O)C2` [Compound 9004D], the Ki is under 10 nM.

Turning to `COc1ccc2c(c1)C(=O)N(C[C@@]1(c3cc(-c4ccco4)no3)NC(=O)NC1=O)C2` [Compound 9252], the Ki is under 10 nM.

Regarding `COc1ccc2c(c1)C(=O)N(C[C@@]1(c3cc[nH]n3)NC(=O)NC1=O)C2` [Compound 9224], the Ki is under 10 nM.

As to `COc1ccc2c(c1)C(=O)N(C[C@@]1(c3cc4cc(F)ccc4o3)NC(=O)NC1=O)C2` [Compound 9213], the Ki is under 10 nM.

For `COc1ccc2c(c1)C(=O)N(C[C@@]1(c3c[nH]nn3)NC(=O)NC1=O)C2` [Compound 9258], the inhibition constant (Ki) lay within 10 to 100 nM.

For `COc1ccc2c(c1)C(=O)N(C[C@@]1(c3cc4ccc(F)cc4o3)NC(=O)NC1=O)C2` [Compound 9214], the inhibition constant (Ki) was under 10 nM.

Consider `COc1ccc2c(c1)C(=O)N(C[C@@]1(c3ccc(OCc4ccncc4)cc3)NC(=O)NC1=O)C2` [Compound 9633], for which the Ki was under 10 nM.

As for `COc1ccc2c(c1)C(=O)N(C[C@]1(c3nccs3)NC(=O)NC1=O)C2` [Compound 9002D], the Ki is 10 to 100 nM.

As for `COc1ccc2c(c1)C(=O)N(C[C@@]1(/C(Cl)=C\c3ccc4ccccc4n3)NC(=O)NC1=O)C2` [Compound 9235], the Ki is under 10 nM.

For `COc1ccc2c(c1)C(=O)N(C[C@@]1(c3cnn(C4CCCC4)c3)NC(=O)NC1=O)C2` [Compound 9003G], the Ki is under 10 nM.

`COc1ccc2c(c1)C(=O)N(C[C@@]1(c3ccc(-c4cc(C)c5nn(C)cc5c4)cc3)NC(=O)NC1=O)C2` [Compound 9736]: the Ki was under 10 nM.

Still in this assay, the particulars now being: Ki (nM), TACE inhibitory activity, class letters.
Consider `O=C1NC(=O)C(CN2Cc3ccc(F)cc3C2=O)(c2ccc(-c3cn[nH]c3)cc2)N1` (stereo not shown) [Compound 164], for which the Ki was under 10 nM.

As to `O=C1NC(=O)[C@](CN2Cc3ccc(OCC#CCO)cc3C2=O)(c2ccc(F)cc2)N1` [Compound 240], the Ki was under 10 nM.

For `COc1ccc2c(c1)CN(CC1(c3ccc(-c4ccccc4)s3)NC(=O)NC1=O)C2=O` (stereo not shown) [Compound 264], the Ki was under 10 nM.

Take `COc1ncc(-c2ccc([C@]3(CN4Cc5ccc(F)cc5C4=O)NC(=O)NC3=O)cc2)cn1` [Compound 124]: the Ki was under 10 nM.

As to `O=C1NC(=O)[C@](CN2Cc3ccc(F)cc3C2=O)(c2ccc(-c3cccc4ncccc34)cc2)N1` [Compound 150], the Ki was under 10 nM.

As for `O=C1NC(=O)[C@](CN2Cc3ccc(F)cc3C2=O)(c2ccc(-c3ccsc3)cc2)N1` [Compound 147], the Ki is under 10 nM.

`O=C1NC(=O)[C@](CN2Cc3ccc(F)cc3C2=O)(c2nc3ccccc3s2)N1` [Compound 181]: the Ki was under 10 nM.

Take `COc1ccc2c(c1)CN(CC1(C3CCN(C4CCCC4)CC3)NC(=O)NC1=O)C2=O` (stereo not shown) [Compound 275]: the Ki fell in the range of 100 to 1000 nM.

For `O=C1NC(=O)C(CN2Cc3ccc(O)cc3C2=O)(c2ccccc2)N1` (stereo not shown) [Compound 187], the Ki fell in the range of 10 to 100 nM.

In the case of `Cc1cc(COc2ccc3c(c2)C(=O)N(C[C@@]2(c4ccccc4)NC(=O)NC2=O)C3)c2ccccc2n1` [Compound 197], the Ki was under 10 nM.

For the compound `CC(C)S(=O)(=O)NCC1(CN2Cc3ccccc3C2=O)NC(=O)NC1=O` (stereo not shown) [Compound 39], the Ki lay within 100 to 1000 nM.

In the case of `COc1ccc2c(c1)C(=O)N(CC1(c3ccc(-c4ccccn4)s3)NC(=O)NC1=O)C2` (stereo not shown) [Compound 281], the Ki was under 10 nM.

Take `O=C1NC(=O)[C@@](CN2Cc3cc(Cl)c(Cl)cc3C2=O)(c2ccc(F)cc2)N1` [Compound 106]: the Ki is under 10 nM.

As for `O=C1NC(=O)C(CN2Cc3ccc(F)cc3C2=O)(c2ccc(-c3cnc4ccccc4c3)cc2)N1` (stereo not shown) [Compound 163], the Ki lay within 10 to 100 nM.

`O=C1NC(=O)[C@](CN2Cc3cc(O)ccc3C2=O)(c2ccc(Br)cc2)N1` [Compound 214]: the Ki is under 10 nM.

Turning to `O=C1NC(=O)[C@](CN2Cc3ccc(OCC#CCO)cc3C2=O)(c2ccc(-c3ccncc3)cc2)N1` [Compound 241], the Ki is under 10 nM.

`CC1(CN2Cc3ccc(O)cc3C2=O)NC(=O)NC1=O` (stereo not shown) [Compound 32]: the Ki lay within 100 to 1000 nM.

The assay is the same for the next values; noted with them: Ki Rating, TACE inhibitory activity, Table 3000.
Take `COc1ccc2c(c1)C(=O)N(C[C@@]1(c3ccc(-c4cnc(O)c(Cl)c4)cc3)NC(=O)NC1=O)C2` [Compound 8013]: the Ki was under 10 nM.

Consider `O=C1NC(=O)[C@](CN2Cc3cc(OCC#CCO)ccc3C2=O)(c2ccccc2)N1` [Compound 5010], for which the Ki was under 10 nM.

Take `CC#CCOc1ccc2c(c1)C(=O)N(C[C@@]1(c3ccc(-c4c(C)nn(C)c4C)cc3)NC(=O)NC1=O)C2` [Compound 3035]: the Ki is under 10 nM.

As to `O=C1NC(=O)C(CN2Cc3cc(OCc4ccccc4)c(F)cc3C2=O)(c2ccc(F)cc2)N1` (stereo not shown) [Compound 2031A], the Ki was 10 to 100 nM.

`COc1ccc2c(c1)C(=O)N(C[C@@]1(c3ccc(-c4cc(C)c5nc[nH]c5c4)cc3)NC(=O)NC1=O)C2` [Compound 7009]: the Ki was under 10 nM.

As for `O=C1NC(=O)[C@](CN2Cc3ccc(F)cc3C2=O)(c2ccc(-c3cc(-c4ccccc4)no3)cc2)N1` [Compound 3026], the Ki lay within 10 to 100 nM.

As for `CC#CCOc1ccc2c(c1)C(=O)N(C[C@@]1(c3ccc(-c4cnn(CCC)c4)cc3)NC(=O)NC1=O)C2` [Compound 6022], the Ki was under 10 nM.

Consider `O=C1NC(=O)[C@](CN2Cc3ccc(OC(F)F)cc3C2=O)(c2ccc(Br)cc2)N1` [Compound 7021], for which the Ki was under 10 nM.

Consider `COc1ccc2c(c1)C(=O)N(C[C@@]1(c3ccc(-c4cc(C)c5ncn(C)c5c4)cc3)NC(=O)NC1=O)C2` [Compound 7022], for which the Ki is under 10 nM.

In the case of `COc1ccc2c(c1)C(=O)N(C[C@@]1(c3ccc(-c4ccc(C(F)(F)F)cn4)cc3)NC(=O)NC1=O)C2` [Compound 4026], the Ki is under 10 nM.

Regarding `COc1ccc2c(c1)C(=O)N(C[C@]1(c3ccc(-c4cc(C)c5nc[nH]c5c4)cc3)NC(=O)NC1=O)C2` [Compound 3008], the Ki fell in the range of 10 to 100 nM.

For the compound `O=C1NC(=O)[C@](CN2Cc3ccc(F)cc3C2=O)(c2ccc(-c3cc(C(F)(F)F)nc4c(C(F)(F)F)cccc34)cc2)N1` [Compound 8005], the Ki lay within 100 to 1000 nM.

`Cn1cnc2c(-c3ccc([C@]4(CN5Cc6ccc(F)cc6C5=O)NC(=O)NC4=O)cc3)ncnc21` [Compound 3029]: the Ki was under 10 nM.

`Cc1nc(-c2cccc(-c3ccc([C@@]4(CN5Cc6ccc(F)cc6C5=O)NC(=O)NC4=O)cc3)c2)cs1` [Compound 3021]: the Ki is over 1000 nM.

Consider `CCC#CCOc1ccc2c(c1)C(=O)N(C[C@@]1(c3ccc(F)cc3)NC(=O)NC1=O)C2` [Compound 8010], for which the Ki was under 10 nM.

For `O=C1NC(=O)C(CN2Cc3ccc(F)cc3C2=O)(c2ccc(-c3ccc4cn[nH]c4c3)cc2)N1` (stereo not shown) [Compound 6013], the Ki is under 10 nM.

Take `COc1ccc2c(c1)C(=O)N(C[C@@]1(c3ccc(-c4ccc5[nH]nc(C)c5c4)cc3)NC(=O)NC1=O)C2` [Compound 6007]: the Ki is under 10 nM.

Consider `Cn1cc2cc(-c3ccc([C@]4(CN5Cc6ccc(F)cc6C5=O)NC(=O)NC4=O)cc3)ccc2n1` [Compound 6010], for which the Ki is under 10 nM.

With `O=C1NC(=O)C(CN2Cc3cc(F)c(F)cc3C2=O)(c2ccc(F)cc2)N1` (stereo not shown) [Compound 2030A], the Ki fell in the range of 100 to 1000 nM.
